Source: ChEMBL document CHEMBL5537133, “Rational design and optimization of novel 4-methyl quinazoline derivatives as PI3K/HDAC dual inhibitors with benzamide as zinc binding moiety for the treatment of acute myeloid leukemia” (Eur J Med Chem, 2024)
Calls of active or inactive are those of the source. No cut-off for these calls is given here.

Protein sequences, listed by entry. Tags and fused reporters are not part of them. Lines headed by an entry give the natural chain unless they say otherwise; changes in a name come on top.
UniProt Q13547: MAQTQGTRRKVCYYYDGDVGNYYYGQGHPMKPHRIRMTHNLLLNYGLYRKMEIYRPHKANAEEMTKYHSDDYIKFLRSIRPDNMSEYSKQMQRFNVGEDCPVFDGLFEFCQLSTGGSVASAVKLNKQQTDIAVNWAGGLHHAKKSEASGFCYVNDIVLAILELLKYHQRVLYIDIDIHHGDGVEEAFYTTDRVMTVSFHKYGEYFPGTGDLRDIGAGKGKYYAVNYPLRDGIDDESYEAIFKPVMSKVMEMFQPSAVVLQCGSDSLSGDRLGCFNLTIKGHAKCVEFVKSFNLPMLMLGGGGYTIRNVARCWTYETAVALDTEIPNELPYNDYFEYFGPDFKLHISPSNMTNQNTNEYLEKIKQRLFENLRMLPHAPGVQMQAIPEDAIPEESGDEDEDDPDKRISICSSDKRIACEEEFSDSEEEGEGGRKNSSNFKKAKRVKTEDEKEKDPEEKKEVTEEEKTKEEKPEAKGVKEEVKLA
UniProt O15379: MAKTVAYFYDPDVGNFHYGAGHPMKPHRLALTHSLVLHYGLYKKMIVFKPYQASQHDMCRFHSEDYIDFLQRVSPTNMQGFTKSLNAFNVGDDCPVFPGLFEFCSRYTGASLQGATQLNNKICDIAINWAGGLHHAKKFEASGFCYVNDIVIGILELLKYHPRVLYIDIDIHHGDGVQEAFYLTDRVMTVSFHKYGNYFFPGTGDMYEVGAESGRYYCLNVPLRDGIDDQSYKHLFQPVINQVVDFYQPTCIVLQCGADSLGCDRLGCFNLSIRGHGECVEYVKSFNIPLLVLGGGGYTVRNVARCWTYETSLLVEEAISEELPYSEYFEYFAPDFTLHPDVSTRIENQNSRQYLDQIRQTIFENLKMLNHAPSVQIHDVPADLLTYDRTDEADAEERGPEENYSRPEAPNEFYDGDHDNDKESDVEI
UniProt Q92769: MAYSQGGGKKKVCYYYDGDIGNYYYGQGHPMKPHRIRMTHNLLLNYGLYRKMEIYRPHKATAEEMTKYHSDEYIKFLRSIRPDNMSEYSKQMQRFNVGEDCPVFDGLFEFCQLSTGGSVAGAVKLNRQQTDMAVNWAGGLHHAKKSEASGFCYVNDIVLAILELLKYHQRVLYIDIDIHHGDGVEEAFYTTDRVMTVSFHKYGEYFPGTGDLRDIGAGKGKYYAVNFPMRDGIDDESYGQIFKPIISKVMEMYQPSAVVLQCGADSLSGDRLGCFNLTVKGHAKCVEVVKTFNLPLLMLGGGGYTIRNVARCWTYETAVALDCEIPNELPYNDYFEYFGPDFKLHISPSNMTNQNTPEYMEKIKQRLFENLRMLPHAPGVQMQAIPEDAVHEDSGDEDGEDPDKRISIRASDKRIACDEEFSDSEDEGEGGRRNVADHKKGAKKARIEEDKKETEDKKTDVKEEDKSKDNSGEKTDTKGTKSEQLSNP
UniProt Q8WUI4: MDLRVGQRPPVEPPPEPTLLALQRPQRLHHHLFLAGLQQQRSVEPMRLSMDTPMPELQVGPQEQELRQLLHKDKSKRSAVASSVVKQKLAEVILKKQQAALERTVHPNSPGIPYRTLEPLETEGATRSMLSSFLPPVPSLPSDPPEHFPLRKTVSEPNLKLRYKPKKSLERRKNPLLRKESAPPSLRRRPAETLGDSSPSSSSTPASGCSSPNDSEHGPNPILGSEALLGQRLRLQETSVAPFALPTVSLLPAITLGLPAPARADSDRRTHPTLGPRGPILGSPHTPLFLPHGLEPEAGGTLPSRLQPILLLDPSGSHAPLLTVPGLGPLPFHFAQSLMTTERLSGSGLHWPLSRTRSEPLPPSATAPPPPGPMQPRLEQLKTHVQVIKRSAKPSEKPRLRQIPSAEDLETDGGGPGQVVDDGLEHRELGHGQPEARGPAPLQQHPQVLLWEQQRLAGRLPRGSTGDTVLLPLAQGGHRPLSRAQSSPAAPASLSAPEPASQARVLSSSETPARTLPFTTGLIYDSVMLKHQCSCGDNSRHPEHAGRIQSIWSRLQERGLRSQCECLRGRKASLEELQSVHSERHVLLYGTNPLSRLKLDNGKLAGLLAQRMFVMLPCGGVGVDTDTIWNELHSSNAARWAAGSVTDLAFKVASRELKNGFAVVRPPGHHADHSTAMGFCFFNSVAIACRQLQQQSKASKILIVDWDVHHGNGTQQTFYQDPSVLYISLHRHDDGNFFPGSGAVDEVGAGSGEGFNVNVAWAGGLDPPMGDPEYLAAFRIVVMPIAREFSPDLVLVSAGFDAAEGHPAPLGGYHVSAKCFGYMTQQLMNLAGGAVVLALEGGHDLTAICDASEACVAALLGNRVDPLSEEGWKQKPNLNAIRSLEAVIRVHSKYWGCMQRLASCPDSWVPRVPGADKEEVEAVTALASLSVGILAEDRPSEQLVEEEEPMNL
UniProt Q9BY41: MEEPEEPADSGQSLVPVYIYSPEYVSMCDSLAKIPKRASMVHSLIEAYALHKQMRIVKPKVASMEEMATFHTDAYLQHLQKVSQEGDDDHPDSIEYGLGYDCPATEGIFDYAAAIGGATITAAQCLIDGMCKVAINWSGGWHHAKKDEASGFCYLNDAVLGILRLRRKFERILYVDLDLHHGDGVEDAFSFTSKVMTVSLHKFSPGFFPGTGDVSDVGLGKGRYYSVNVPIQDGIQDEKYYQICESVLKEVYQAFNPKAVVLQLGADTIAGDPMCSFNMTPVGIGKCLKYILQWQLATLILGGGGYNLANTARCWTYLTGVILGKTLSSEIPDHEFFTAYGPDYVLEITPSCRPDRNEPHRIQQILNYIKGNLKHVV
UniProt Q9UKV0: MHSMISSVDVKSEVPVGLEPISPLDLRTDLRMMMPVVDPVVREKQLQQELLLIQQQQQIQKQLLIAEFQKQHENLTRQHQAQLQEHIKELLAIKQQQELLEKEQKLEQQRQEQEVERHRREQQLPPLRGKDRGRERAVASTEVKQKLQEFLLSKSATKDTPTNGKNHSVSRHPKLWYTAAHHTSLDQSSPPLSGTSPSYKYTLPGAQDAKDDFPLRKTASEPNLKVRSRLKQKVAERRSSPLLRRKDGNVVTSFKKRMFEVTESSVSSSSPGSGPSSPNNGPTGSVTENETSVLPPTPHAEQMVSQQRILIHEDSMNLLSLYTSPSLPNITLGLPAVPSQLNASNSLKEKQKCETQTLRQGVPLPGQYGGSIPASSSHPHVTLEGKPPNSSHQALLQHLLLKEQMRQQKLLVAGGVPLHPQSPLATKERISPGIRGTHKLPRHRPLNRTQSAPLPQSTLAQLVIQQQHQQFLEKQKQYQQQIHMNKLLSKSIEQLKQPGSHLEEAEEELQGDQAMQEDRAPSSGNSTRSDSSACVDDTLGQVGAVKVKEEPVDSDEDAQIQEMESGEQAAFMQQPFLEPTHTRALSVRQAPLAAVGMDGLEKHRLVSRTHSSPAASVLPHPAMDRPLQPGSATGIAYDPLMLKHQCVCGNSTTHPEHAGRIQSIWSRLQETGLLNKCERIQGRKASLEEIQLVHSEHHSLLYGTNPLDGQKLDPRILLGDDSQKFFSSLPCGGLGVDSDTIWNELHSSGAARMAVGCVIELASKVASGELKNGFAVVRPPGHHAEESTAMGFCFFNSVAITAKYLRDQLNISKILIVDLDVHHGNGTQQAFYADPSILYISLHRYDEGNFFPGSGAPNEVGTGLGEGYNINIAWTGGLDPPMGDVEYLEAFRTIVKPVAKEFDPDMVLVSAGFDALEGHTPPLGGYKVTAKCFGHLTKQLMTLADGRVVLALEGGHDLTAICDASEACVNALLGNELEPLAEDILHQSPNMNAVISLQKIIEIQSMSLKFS
UniProt P42336, whole entry: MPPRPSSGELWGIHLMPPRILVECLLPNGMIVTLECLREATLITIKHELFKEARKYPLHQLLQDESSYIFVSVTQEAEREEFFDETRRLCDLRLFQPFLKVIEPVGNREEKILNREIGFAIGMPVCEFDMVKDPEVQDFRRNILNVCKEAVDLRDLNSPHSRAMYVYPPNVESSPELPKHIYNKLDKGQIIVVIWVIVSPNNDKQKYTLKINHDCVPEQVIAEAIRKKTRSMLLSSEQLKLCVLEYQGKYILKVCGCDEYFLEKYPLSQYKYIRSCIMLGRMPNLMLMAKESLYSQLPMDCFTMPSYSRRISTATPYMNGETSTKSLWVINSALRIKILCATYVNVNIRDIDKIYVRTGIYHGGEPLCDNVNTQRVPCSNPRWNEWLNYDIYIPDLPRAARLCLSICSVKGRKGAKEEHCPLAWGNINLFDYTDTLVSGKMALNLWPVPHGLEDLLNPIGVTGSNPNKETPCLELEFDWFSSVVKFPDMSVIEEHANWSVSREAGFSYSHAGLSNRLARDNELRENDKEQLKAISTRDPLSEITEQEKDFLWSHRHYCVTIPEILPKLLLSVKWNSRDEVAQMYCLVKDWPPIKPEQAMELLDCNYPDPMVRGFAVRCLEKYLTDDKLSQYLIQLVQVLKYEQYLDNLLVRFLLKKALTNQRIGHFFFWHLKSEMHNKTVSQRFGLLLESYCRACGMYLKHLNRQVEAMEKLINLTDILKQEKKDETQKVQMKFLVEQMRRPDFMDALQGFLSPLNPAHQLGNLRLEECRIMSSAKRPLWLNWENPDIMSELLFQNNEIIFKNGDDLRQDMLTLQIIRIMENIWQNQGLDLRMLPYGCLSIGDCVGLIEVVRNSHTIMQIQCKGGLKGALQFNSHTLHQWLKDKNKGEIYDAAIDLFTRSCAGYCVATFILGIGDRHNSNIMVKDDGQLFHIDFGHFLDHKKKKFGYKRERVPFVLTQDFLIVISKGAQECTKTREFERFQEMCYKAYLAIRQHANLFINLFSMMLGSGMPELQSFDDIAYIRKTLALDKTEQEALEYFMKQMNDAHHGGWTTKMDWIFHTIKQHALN
UniProt O00750: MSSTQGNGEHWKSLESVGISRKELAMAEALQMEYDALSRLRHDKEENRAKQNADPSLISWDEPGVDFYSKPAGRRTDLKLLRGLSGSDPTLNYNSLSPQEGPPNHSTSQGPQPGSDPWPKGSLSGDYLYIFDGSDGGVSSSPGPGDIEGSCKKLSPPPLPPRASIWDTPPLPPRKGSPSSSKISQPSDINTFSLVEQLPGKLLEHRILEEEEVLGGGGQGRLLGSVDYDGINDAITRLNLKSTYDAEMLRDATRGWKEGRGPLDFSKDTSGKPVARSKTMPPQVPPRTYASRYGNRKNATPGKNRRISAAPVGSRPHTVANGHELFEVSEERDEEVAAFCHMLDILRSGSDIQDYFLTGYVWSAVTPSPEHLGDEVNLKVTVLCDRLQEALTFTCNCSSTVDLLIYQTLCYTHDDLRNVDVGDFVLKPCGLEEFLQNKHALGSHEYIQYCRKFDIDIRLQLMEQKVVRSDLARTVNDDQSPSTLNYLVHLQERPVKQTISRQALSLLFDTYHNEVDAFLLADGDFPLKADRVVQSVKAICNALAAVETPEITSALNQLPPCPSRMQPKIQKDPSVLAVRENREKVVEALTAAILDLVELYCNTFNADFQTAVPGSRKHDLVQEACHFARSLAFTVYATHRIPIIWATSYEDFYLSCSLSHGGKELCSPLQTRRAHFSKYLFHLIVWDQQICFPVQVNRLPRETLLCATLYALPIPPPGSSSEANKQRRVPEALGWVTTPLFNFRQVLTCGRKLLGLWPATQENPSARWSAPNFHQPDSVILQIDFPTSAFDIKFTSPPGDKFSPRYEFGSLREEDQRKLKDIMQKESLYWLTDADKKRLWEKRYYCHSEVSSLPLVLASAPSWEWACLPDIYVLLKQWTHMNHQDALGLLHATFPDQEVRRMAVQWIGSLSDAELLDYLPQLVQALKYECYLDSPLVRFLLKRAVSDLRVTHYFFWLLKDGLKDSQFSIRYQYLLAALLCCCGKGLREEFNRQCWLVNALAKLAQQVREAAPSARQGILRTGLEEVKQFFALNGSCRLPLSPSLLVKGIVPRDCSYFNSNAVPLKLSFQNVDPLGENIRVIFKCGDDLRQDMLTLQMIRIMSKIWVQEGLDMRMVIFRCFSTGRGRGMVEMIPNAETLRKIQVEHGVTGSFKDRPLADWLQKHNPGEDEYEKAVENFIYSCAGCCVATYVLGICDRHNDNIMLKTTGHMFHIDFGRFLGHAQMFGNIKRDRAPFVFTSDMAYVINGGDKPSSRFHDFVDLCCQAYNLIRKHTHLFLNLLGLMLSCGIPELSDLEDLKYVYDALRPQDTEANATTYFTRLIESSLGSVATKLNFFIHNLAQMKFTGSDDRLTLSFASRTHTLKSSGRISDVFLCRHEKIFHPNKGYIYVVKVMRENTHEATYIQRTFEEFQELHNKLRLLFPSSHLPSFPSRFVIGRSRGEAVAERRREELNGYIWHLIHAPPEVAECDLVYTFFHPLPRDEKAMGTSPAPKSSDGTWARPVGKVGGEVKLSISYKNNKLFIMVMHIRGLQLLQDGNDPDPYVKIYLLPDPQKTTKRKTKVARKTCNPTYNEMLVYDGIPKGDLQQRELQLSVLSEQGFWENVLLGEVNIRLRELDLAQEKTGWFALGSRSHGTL

Columns and labels:
[1] = target: T1, Histone deacetylase (Homo sapiens) (UniProt Q13547+O15379+Q9UBN7+Q92769+Q9UQL6+Q8WUI4+Q9BY41+Q96DB2+P56524+Q9UKV0+Q969S8); experiment: Inhibition of HDAC in human MV4-11 cells assessed as increase in H3 acetylation level incubated for 24 hrs by Western blotting analysis; format: cell-based; details: dose 0.04-5 µM
Mus musculus [2] = experiment: In vivo inhibition of HDAC in human MV4-11 cells xenografted in po dosed BALB/c nude mouse assessed as increase in H3 acetylation administered once daily for 14 days by Western blotting analysis; format: functional, organism-based; details: dose 60.0 mg/kg, time 14.0 day
Mus musculus [3] = experiment: In vivo inhibition of HDAC in human MV4-11 cells xenografted in ip dosed BALB/c nude mouse assessed as increase in H3 acetylation administered once daily for 14 days by Western blotting analysis; format: functional, organism-based; details: dose 10-20 mg/kg, time 14.0 day
MV4-11 [4] = experiment: Antitumor activity against human MV4-11 cells xenografted in BALB/c nude mouse assessed as increase in cleaved PARP at 10 to 20 mg/kg, ip administered once daily for 14 days by Western blotting analysis; format: functional, organism-based; details: dose 10-20 mg/kg, time 14.0 day
Mus musculus [5] = experiment: In vivo inhibition of PI3K in human MV4-11 cells xenografted in ip dosed BALB/c nude mouse assessed as reduction in AKT phosphorylation at Thr308 residue administered once daily for 14 days by Western blotting analysis; format: functional, organism-based; details: dose 10-20 mg/kg, time 14.0 day
Mus musculus [6] = experiment: In vivo inhibition of HDAC in human MV4-11 cells xenografted in ip dosed BALB/c nude mouse assessed as increase in p53 acetylation administered once daily for 14 days by Western blotting analysis; format: functional, organism-based; details: dose 10-20 mg/kg, time 14.0 day
MV4-11 [7] = experiment: Antitumor activity against human MV4-11 cells xenografted in BALB/c nude mouse assessed as increase in cleaved caspase-3 at 60 mg/kg, po administered once daily for 14 days by Western blotting analysis; format: functional, organism-based; details: time 14.0 day
Mus musculus [8] = experiment: In vivo inhibition of PI3K in human MV4-11 cells xenografted in po dosed BALB/c nude mouse assessed as reduction in AKT phosphorylation at Ser473 residue administered once daily for 14 days by Western blotting analysis; format: functional, organism-based; details: dose 60.0 mg/kg, time 14.0 day
MV4-11 [9] = experiment: Antitumor activity against human MV4-11 cells xenografted in BALB/c nude mouse assessed as increase in cleaved caspase-3 at 10 to 20 mg/kg, ip administered once daily for 14 days by Western blotting analysis; format: functional, organism-based; details: dose 10-20 mg/kg, time 14.0 day
[10] = target: T1, Histone deacetylase (Homo sapiens); experiment: Inhibition of HDAC in human MV4-11 cells assessed as decrease in p53 level incubated for 24 hrs by Western blotting analysis; format: cell-based; details: dose 0.04-5 µM
MV4-11 [11] = experiment: Induction of apoptosis in human MV4-11 cells assessed as increase in cleaved caspase-3 level incubated for 24 hrs by Western blotting analysis; format: functional, cell-based; details: dose 0.04-5 µM
Mus musculus [12] = experiment: In vivo inhibition of HDAC in human MV4-11 cells xenografted in po dosed BALB/c nude mouse assessed as increase in p53 acetylation administered once daily for 14 days by Western blotting analysis; format: functional, organism-based; details: dose 60.0 mg/kg, time 14.0 day
MV4-11 [13] = experiment: Antitumor activity against human MV4-11 cells xenografted in BALB/c nude mouse assessed as increase in cleaved PARP at 60 mg/kg, po administered once daily for 14 days by Western blotting analysis; format: functional, organism-based; details: time 14.0 day
[14] = target: Phosphatidylinositol 4,5-bisphosphate 3-kinase catalytic subunit gamma isoform (Homo sapiens, UniProt P48736); experiment: Inhibition of PIK3CG (unknown origin) assessed as remaining activity at 1 uM by KINOMEscan analysis relative to control
MV4-11 [15] = experiment: Inhibition of PI3K in human MV4-11 cells assessed as decrease in AKT phosphorylation at T308 residue incubated for 24 hrs by Western blotting analysis; format: cell-based; details: dose 0.04-5 µM
Mus musculus [16] = experiment: In vivo inhibition of PI3K in human MV4-11 cells xenografted in po dosed BALB/c nude mouse assessed as reduction in AKT phosphorylation at Thr308 residue administered once daily for 14 days by Western blotting analysis; format: functional, organism-based; details: dose 60.0 mg/kg, time 14.0 day
[17] = target: Phosphatidylinositol 4,5-bisphosphate 3-kinase catalytic subunit alpha isoform (Homo sapiens, UniProt P42336); experiment: Inhibition of PIK3CA (unknown origin) assessed as remaining activity at 1 uM by KINOMEscan analysis relative to control
MV4-11 [18] = experiment: Induction of apoptosis in human MV4-11 cells assessed as increase in cleaved PARP level incubated for 24 hrs by Western blotting analysis; format: functional, cell-based; details: dose 0.04-5 µM
Mus musculus [19] = experiment: In vivo inhibition of PI3K in human MV4-11 cells xenografted in ip dosed BALB/c nude mouse assessed as reduction in AKT phosphorylation at Ser473 residue administered once daily for 14 days by Western blotting analysis; format: functional, organism-based; details: dose 10-20 mg/kg, time 14.0 day
MV4-11 [20] = experiment: Induction of apoptosis in human MV4-11 cells incubated for 24 hrs by Annexin V-FITC/propidium iodide staining based flow cytometry analysis; format: functional, cell-based; details: dose 0.04-5 µM
MV4-11 [21] = experiment: Inhibition of PI3K in human MV4-11 cells assessed as decrease in AKT phosphorylation at S473 residue incubated for 24 hrs by Western blotting analysis; format: cell-based; details: dose 0.04-5 µM
[22] = target: Phosphatidylinositol 4-phosphate 3-kinase C2 domain-containing subunit beta (Homo sapiens) (UniProt O00750); experiment: Inhibition of PIK3C2B (unknown origin) assessed as remaining activity at 1 uM by KINOMEscan analysis relative to control
MV4-11 [23] = experiment: Induction of cell cycle arrest in human MV4-11 cells assessed as accumulation of cell at G0/G1 phase incubated for 24 hrs by FxCycle propidium iodide/RNase staining based flow cytometry analysis; format: functional; details: dose 0.04-5 µM
MV4-11 [24] = experiment: Induction of cell cycle arrest in human MV4-11 cells assessed as accumulation of cell at G0/G1 phase at 5 uM incubated for 24 hrs by FxCycle propidium iodide/RNase staining based flow cytometry analysis; format: functional
MV4-11 [25] = experiment: Induction of cell cycle arrest in human MV4-11 cells assessed as accumulation of cell at S phase at 5 uM incubated for 24 hrs by FxCycle propidium iodide/RNase staining based flow cytometry analysis; format: functional

inhibition [1]	inhibition [10]	Activity [14]	Activity [17]	Structure (SMILES)	Activity (Mus musculus [2])	Activity (Mus musculus [3])	Activity (MV4-11 [4])	Activity (Mus musculus [5])	Activity (Mus musculus [6])	Activity (MV4-11 [7])	Activity (Mus musculus [8])	Activity (MV4-11 [9])	Activity (MV4-11 [11])	Activity (Mus musculus [12])	Activity (MV4-11 [13])	inhibition (MV4-11 [15])	Activity (Mus musculus [16])	Activity (MV4-11 [18])	Activity (Mus musculus [19])	Activity (MV4-11 [20])	other results
Dose-Dependent Effect	Dose-Dependent Effect	0.05%	0.2%	COc1ncc(-c2cc(OCCCc3ccc(C(=O)Nc4ccccc4N)cc3)c3ncnc(C)c3c2)cc1NS(=O)(=O)c1ccc(F)cc1F	Dose-Dependent Effect	Dose-Dependent Effect	Active	Dose-Dependent Effect	Dose-Dependent Effect	Active	Dose-Dependent Effect	Active	Dose-Dependent Effect	Dose-Dependent Effect	Active	Dose-Dependent Effect	Dose-Dependent Effect	Dose-Dependent Effect	Dose-Dependent Effect	Dose-Dependent Effect	inhibition (MV4-11 [21]): Dose-Dependent Effect; Activity [22]: 0.2%; Activity (MV4-11 [23]): Dose-Dependent Effect
Dose-Dependent Effect	Dose-Dependent Effect	0%	0.25%	COc1ncc(-c2cc(OCCCCCCC(=O)Nc3ccccc3N)c3ncnc(C)c3c2)cc1NS(=O)(=O)c1ccc(F)cc1F	Dose-Dependent Effect	Dose-Dependent Effect	Active	Dose-Dependent Effect	Dose-Dependent Effect	Active	Dose-Dependent Effect	Active	Dose-Dependent Effect	Dose-Dependent Effect	Active	Dose-Dependent Effect	Dose-Dependent Effect	Dose-Dependent Effect	Dose-Dependent Effect	Dose-Dependent Effect	inhibition (MV4-11 [21]): Dose-Dependent Effect; Activity [22]: 0.35%; Activity (MV4-11 [23]): Dose-Dependent Effect
–	–	–	–	Cc1nc(NC(=O)N2CCC[C@H]2C(N)=O)sc1-c1ccnc(C(C)(C)C(F)(F)F)c1 [ALPELISIB]	–	–	–	–	–	–	–	–	–	–	–	–	–	–	–	–	Activity (MV4-11 [24]): Active
–	–	–	–	O=C(CCCCCCC(=O)Nc1ccccc1)NO [VORINOSTAT]	–	–	–	–	–	–	–	–	–	–	–	–	–	–	–	–	Activity (MV4-11 [25]): Active
